From ChEMBL document CHEMBL4425140, “Discovery of a Potent and Selective Coactivator Associated Arginine Methyltransferase 1 (CARM1) Inhibitor by Virtual Screening” (J Med Chem, 2016)

How the values were obtained:
Type in all cases: cell-based
[1] = Selectivity index, ratio of IC50 for RMT6 (unknown origin) to IC50 for full-length Halo-tagged human CARM1 (1 to 608 residues) expressed in 293-F cells
[2] = target: T1, Histone-arginine methyltransferase CARM1 (Homo sapiens) (UniProt Q86X55); assay: Inhibition of full-length Halo-tagged human CARM1 (1 to 608 residues) expressed in 293-F cells at 10 uM using [3H]-SAM and biotinylated histone peptides by scintillation proximity based radiometric assay
T1 sequence (whole entry): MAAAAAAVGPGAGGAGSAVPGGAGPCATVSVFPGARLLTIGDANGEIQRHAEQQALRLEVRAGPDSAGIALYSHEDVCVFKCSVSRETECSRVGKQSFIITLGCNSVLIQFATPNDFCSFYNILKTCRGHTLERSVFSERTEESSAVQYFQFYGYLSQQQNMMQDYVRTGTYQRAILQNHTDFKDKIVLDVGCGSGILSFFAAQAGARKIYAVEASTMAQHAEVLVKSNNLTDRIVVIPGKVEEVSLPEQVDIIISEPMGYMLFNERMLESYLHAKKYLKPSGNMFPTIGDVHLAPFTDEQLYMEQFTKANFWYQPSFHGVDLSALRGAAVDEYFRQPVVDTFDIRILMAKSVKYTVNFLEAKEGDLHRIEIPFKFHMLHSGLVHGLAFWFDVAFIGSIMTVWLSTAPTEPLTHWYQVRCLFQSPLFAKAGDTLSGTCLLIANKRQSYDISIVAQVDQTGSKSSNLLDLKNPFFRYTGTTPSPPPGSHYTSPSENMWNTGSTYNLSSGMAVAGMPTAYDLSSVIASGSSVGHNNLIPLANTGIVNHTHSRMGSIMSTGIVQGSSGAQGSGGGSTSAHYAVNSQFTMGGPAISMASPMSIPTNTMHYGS
Procedure, shortened: (§1)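 Radiometric scintillation proximity assay. Tag-cleaved full-length human CARM1 (1–608) at 25 nM, with 0.7 μM C-terminally biotinylated H3 1–25 peptide and 1.9 μM [3H]-SAM in 20 mM bicine pH 8.5. Transfer of tritiated methyl to the peptide counted as cpm. Single compound concentration per line.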

[3] = target: T1, Histone-arginine methyltransferase CARM1 (Homo sapiens); assay: Inhibition of full-length Halo-tagged human CARM1 (1 to 608 residues) expressed in 293-F cells at 50 uM using [3H]-SAM and biotinylated histone peptides by scintillation proximity based radiometric assay; procedure, shortened: as §1
[4] = target: T1, Histone-arginine methyltransferase CARM1 (Homo sapiens); assay: Binding affinity to full-length Halo-tagged human CARM1 (1 to 608 residues) expressed in 293-F cells assessed as change in melting temperature by Sypro orange dye based differential scanning fluorimetry
[5] = target: T1, Histone-arginine methyltransferase CARM1 (Homo sapiens); assay: Binding affinity to full-length Halo-tagged human CARM1 (1 to 608 residues) expressed in 293-F cells assessed as change in aggregation temperature by differential static light scattering
Procedure, shortened: (§2)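 Full-length human CARM1 (residues 1–608) expressed as a HaloTag fusion in FreeStyle 293-F cells, HaloTag-purified, tag removed with TEV. Heated from 30 to 80 °C at 1 °C/min; aggregation temperature shift read by static light scattering.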

[6] = target: T1, Histone-arginine methyltransferase CARM1 (Homo sapiens); assay: Binding affinity to full-length Halo-tagged human CARM1 (1 to 608 residues) expressed in 293-F cells assessed as change in melting temperature in presencee of SAM by Sypro orange dye based differential scanning fluorimetry
[7] = target: T1, Histone-arginine methyltransferase CARM1 (Homo sapiens); assay: Binding affinity to full-length Halo-tagged human CARM1 (1 to 608 residues) expressed in 293-F cells assessed as change in aggregation temperature in presence of SAM by differential static light scattering; procedure, shortened: as §2

With `C[C@H](N)C(=O)NCc1cccnc1Oc1ccc(F)cc1F` as the compound, how does the Ratio IC50 [1] read?
Its Ratio IC50 is over 7.

Which results are given for `Cc1cc(OCCNCCN)ccc1C(C)C`?
inhibition [2]: Active; inhibition [3]: Active; ΔTm [4]: -2.4 °C; ΔTm [5]: -2 °C; Activity [6]: Active; Activity [7]: Active

For `NCC(=O)NCCc1ccccc1`, which inhibition [2] is on record?
Its inhibition is “Active”.

And the inhibition [3]?
The inhibition was “Active”.

What about the ΔTm [4] of the same compound?
The ΔTm was 0.45 °C.

And the ΔTm [5]?
Its ΔTm is 0.5 °C.

What about the Activity [6] of the same compound?
Its Activity is “Active”.

And the Activity [7]?
Its Activity is “Active”.

With `CCC(c1ccc(OC)cc1)N(C)CCN` (stereo not given) as the compound, how does the inhibition [2] read?
Its inhibition is “Active”.

What about the inhibition [3] of the same compound?
Its inhibition is “Active”.

The source made the active and inactive calls. The calls are words filed in the database; no cut-off is given here.
